Test results published in patent publication US12268752B2, “Non-natural amatoxin-type antibody conjugate” (SICHUAN BAILI PHARMACEUTICAL CO. LTD., priority 2017, dated 2025).

Experiments:
SKOV3 = assay: In vitro activity test (MTS, 4 days) on SKOV3 cells; type: cell-based; conditions: MTS after 4 days
Protocol: (§1) • Cells: from Cell Bank of Chinese Academy of Sciences • Tumor cell culture medium: Gibco • FBS: BIOWEST 2) Preparation of Culture Medium • Growth medium (with 10% FBS, Penicillin/streptomycin (100 U/mL)) • Detection medium (with 1% FBS, Penicillin/streptomycin (100 U/mL)) 3) Operations
(§2) The ultraviolet lamp of biological safety cabinet was turned on 30 minutes in advance for irradiation, and then ventilation was conducted for 3 minutes. The growth medium, detection medium, D-PBS and trypsin were pre-heated in a 37° C. thermostat water bath, surface-disinfected with alcohol and placed same in the biological safety cabinet. […] According to the number previously determined, the cells are plated at a density of 80 ul/well in a 96 well plate, wherein only well E11, F11 and G11 were only added with 80 ul of detection medium, and marginal wells were filled with 150 ul of DPBS. […]
(§3) 4 days later, MTS reagent was taken out, thawed at room temperature away from light, and homogeneously mixed in a vortex mixer. […] After the completion of the reaction, the 96 well plate was taken out, and measured for the absorbance value at OD490 nm using a microplate reader; and data recording, sorting and storage were performed.

NCI-N87 = assay: In vitro activity test (MTS, 4 days) on NCI-N87 cells; type: cell-based; conditions: MTS after 4 days
Protocol: as §1, §2, §3

Substance: Trastuzumab
- IC50 (SKOV3): > 1000 nM
- IC50 (NCI-N87): 200 to 1000 nM
